Patent US8357705B2 (priority 2008, dated 2013)

By UniProt entry, the sequences of proteins in these tests, tags left out. Where a name states a change or a piece, a line headed by the entry shows the natural chain unless it says otherwise.
UniProt P35372, whole entry, looked up: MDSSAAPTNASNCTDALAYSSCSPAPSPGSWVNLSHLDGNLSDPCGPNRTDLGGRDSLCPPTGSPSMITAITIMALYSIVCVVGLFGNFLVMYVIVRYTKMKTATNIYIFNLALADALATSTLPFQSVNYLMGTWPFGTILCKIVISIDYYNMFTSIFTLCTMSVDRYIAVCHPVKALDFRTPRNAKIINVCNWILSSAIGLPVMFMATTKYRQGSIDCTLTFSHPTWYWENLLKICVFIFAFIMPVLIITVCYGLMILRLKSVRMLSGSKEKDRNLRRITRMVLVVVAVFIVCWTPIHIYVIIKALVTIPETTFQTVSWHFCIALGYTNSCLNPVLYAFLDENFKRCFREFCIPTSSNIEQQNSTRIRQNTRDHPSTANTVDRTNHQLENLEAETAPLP
UniProt P41146: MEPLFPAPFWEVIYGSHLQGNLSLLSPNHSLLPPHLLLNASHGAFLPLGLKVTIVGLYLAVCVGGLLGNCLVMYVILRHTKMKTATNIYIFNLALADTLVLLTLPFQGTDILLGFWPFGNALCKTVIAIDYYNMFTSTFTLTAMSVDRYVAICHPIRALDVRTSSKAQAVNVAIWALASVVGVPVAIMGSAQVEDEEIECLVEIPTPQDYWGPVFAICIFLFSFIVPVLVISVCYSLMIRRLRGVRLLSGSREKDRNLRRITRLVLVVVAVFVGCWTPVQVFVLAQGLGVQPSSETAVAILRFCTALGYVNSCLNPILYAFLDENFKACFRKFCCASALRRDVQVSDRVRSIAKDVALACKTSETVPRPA

Experiments:
human μ-opiate receptor = human μ-opiate receptor (Homo sapiens, UniProt P35372); assay: μ-opiate receptor binding assay with [3H]-naloxone (CHO-K1 membrane preparation); settings: for % Inhibition (μ) [1 μM]: test concentration 1 μmol/l, 1 nmol/l [3H]-naloxone; for Ki: read-out: Ki (μ) Mean, mean, Cheng-Prusoff conversion
ORL 1-receptor = ORL 1-receptor (Homo sapiens, UniProt P41146); assay: ORL 1 receptor binding assay with 3H-nociceptin/orphanin FQ (membranes of recombinant CHO-ORL 1 cells); settings: 0.5 nM 3H-nociceptin/orphanin FQ; for % Inhibition (ORL1) [1 μM]: c = 1 μM; for Ki: read-out: Ki (ORL1) Mean, mean
[1] = tested on: sodium channel binding site 2; assay: [3H] BTX binding to the sodium channel (BTX assay, synaptosomes); set-up: species or system rat
[2] = Nephelometric solubility study (phosphate buffer pH 7.4); type: physicochemical

Compound	% Inhibition (μ) [1 μM] (human μ-opiate receptor) [%]	% Inhibition (ORL1) [1 μM] (ORL 1-receptor) [%]	Inhibition (BTX) Mean [% at 10 μM] [1] [%]	Ki (human μ-opiate receptor) [nM]	Ki (ORL 1-receptor) [nM]	Nephelometry (lower boundary) ([2]; 10 mM phosphate buffer pH 7.4, 1% DMSO, 2 h at 37° C.) [µM]	solubility in aqueous media compared to structurally similar compounds (C-4 to C-6) ([2]; comparison in words)
CN(C)C1(c2ccccc2)CCC(N(C(=O)C(F)(F)F)C(Cc2c[nH]c3ccccc23)c2nnn[nH]2)CC1 (stereo not shown)	72	39	–	–	–	–	–
CN(C)C1(c2ccccc2)CCC(N[C@H](Cc2c[nH]c3ccccc23)c2n[nH]c(=O)o2)CC1 (stereo partly shown)	80	53	43	–	–	–	–
Cc1noc([C@H](Cc2c[nH]c3ccccc23)NC2CCC(c3ccccc3)(N(C)C)CC2)n1 (stereo partly shown)	93	93	–	–	–	–	–
CN(C)C(=O)[C@H](Cc1c[nH]c2ccccc12)NC1CCC(c2ccccc2)(N(C)C)CC1 (single isomer, unassigned)	–	–	–	195	60	–	–
CN(C)C(=O)[C@H](Cc1c[nH]c2ccccc12)NC1CCC(c2ccccc2)(N(C)C)CC1.Cl.Cl (single isomer, unassigned)	72	–	–	–	–	–	–
CN(C)C1(c2ccccc2)CCC(NC(Cc2c[nH]c3ccccc23)c2nnn[nH]2)CC1 (single isomer, unassigned)	–	26	–	340	2800	–	–
CN(C)C1(c2ccccc2)CCC(N[C@H](Cc2c[nH]c3ccccc23)c2n[nH]c(=O)o2)CC1 (single isomer, unassigned)	97	91	–	7	8	–	–
Cc1cnc([C@H](Cc2c[nH]c3ccccc23)NC2CCC(c3ccccc3)(N(C)C)CC2)o1 (single isomer, unassigned)	–	97	–	18	4	–	–
Cc1csc([C@H](Cc2c[nH]c3ccccc23)NC2CCC(c3ccccc3)(N(C)C)CC2)n1 (single isomer, unassigned)	–	86	–	9	20	100	better solubility
